Laboratory results as given in US20250101011A1, “PEPTIDYL NITRILE COMPOUND AND USE THEREOF” (SHANGHAI YIDIAN PHARMACEUTICAL TECHNOLOGY DEVELOPMENT CO., …, priority 2022, published 2025).

Protein sequences, listed by entry. Tags and fused reporters are not part of them. Residues count along the entry.
UniProt P53634, 25-463 limits assumed: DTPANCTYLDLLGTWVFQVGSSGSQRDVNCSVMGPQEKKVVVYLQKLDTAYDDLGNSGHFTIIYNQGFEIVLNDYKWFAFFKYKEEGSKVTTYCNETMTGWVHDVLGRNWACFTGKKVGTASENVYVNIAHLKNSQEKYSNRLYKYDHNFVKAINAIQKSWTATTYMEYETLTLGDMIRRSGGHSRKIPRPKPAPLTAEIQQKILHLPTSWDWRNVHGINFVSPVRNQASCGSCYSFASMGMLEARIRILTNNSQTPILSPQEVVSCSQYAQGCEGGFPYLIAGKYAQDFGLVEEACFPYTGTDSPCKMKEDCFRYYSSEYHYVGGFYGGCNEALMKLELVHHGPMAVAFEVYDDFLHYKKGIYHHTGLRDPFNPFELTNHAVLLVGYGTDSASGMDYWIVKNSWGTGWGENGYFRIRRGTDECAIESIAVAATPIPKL
UniProt P53634, 25-134 limits assumed: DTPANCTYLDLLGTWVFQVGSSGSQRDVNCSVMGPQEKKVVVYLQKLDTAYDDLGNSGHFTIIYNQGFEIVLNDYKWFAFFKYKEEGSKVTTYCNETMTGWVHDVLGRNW
UniProt P53634, 231-394 limits assumed: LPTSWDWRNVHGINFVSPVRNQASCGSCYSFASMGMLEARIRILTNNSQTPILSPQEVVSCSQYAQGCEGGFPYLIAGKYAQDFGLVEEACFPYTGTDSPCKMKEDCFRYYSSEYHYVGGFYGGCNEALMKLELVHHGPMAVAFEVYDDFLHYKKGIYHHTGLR
UniProt P53634, 395-463 limits assumed: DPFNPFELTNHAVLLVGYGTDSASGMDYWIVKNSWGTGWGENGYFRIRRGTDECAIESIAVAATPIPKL

Legend:
DPP1 = DPP1 (Homo sapiens (Human), UniProt P53634); assay: DPP1 activity inhibition test on U937 cells; assay type: cell-based; details: substrate h-Gly-phe-AFC; for Average Inhibition % @5 nM: 5 nM compound; for Average Inhibition % @50 nM: 50 nM compound; for IC50: intracellular enzyme activity
rhCathepsin C/DPP1 = rhCathepsin C/DPP1 (Homo sapiens (Human), UniProt P53634); assay: Test for inhibition of DPP1 enzyme activity; assay type: biochemical; details: recombinant human cathepsin C/DPP1; substrate Gly-Arg-AMC

For `Cn1c(=O)oc2ccc(-c3ccc(C[C@@H](C#N)NC(=O)[C@@H]4CNCC5(CC5)CO4)cc3)cc21`, the “Average Inhibition % @5 nM” value (DPP1) was “+ (“+”: 30% ≤ inhibition % < 75%)”, the “Average Inhibition % @50 nM” value (DPP1) was “++ (“++”: 75% ≤ inhibition % < 100%)” and the IC50 (DPP1) was 9 nM. The IC50 (rhCathepsin C/DPP1) was 1.4 nM.

In the case of `N#C[C@H](Cc1ccc(-c2ccc3c(c2)C2(CCN(C4COC4)CC2)OC3)cc1F)NC(=O)[C@@H]1CNCCCO1`, the “Average Inhibition % @5 nM” value (DPP1) is reported as “+ (“+”: 30% ≤ inhibition % < 75%)”, the “Average Inhibition % @50 nM” value (DPP1) is reported as “++ (“++”: 75% ≤ inhibition % < 100%)” and the IC50 (DPP1) is reported as 11 nM. For the same molecule, the IC50 (rhCathepsin C/DPP1) was 0.79 nM.
